Only some compounds are listed: those with a hit (about 1.3% of all), similar ones and a draw of the others.
GSIS activator = primary screen for activators of insulin secretion dependent on glucose, INS-1E cells, GLuc reporter luminescence; INS-1E GLuc reporter insulin secretion, 2-3 h; activation, % at 16.6 µM; 370,000 compounds, 0.61% hits; AID 743287;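 active means lowest replicate activation of at least 40%, so every replicate reaches that level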;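 further: 0% = median of neutral control wells and 100% = median of IBMX positive control wells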
SR-BI DiI inh = inhibitors of mouse SR-BI mediated HDL lipid uptake | Q61009 | ldlA[mSR-BI] CHO cells, DiI-HDL uptake fluorescence, 3 h | 320,000 compounds, 0.96% hits | inhibition, % at 12.5 µM;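 active means mean replicate inhibition of at least 70% and a set share of replicates each scoring 70 or more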;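 further: 0% = median of neutral control wells and 100% = median of positive control wells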
UUG fidelity = yeast start codon fidelity modulation | S. cerevisiae UUG-firefly luciferase reporter, luminescence/redox ratio | activity score, % at 18.7 µM | hit rate 0.13% among 350,000 | AID 602363;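 active means replicate mean at a twofold rise or more, about +100% in these data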;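 further: firefly luciferase made from a UUG start codon reports start codon fidelity; reporter light over untreated wells divided by growth signal over untreated wells; some hits fall short of that in this replicate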
SR-BI DiI-HDL act = SR-BI HDL lipid transfer activation; CHO ldlA[mSR-BI] cells, DiI-HDL uptake fluorescence, 3 h; 100 = double the neutral-control signal; activation, % at 12.5 µM; 320,000 compounds, 0.096% hits;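 active means mean replicate activation of at least 60% and every replicate at or above 60%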;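 further: 0% = median plate neutral-control signal and 100% = twice that signal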
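system = CHO ldlA[mSR-BI] cells, LDL receptor-null, SR-BI overexpressing | medium = Ham's F12 with 0.5% BSA, HEPES 25 mM, pH 7.4 | probe or stimulus = DiI-HDL 10 µg/mL | compound dosing = single-point compound dose | incubation = compound exposure 3 h, 37 °C | technique = DiI fluorescence, bottom read | read-out = cell-associated DiI fluorescence as measure of HDL uptake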
* = called active by the depositor; x = not tested or not shown.

Each structure is followed by: GSIS activator	SR-BI DiI-HDL act	UUG fidelity	SR-BI DiI inh
Cc1cc([N+](=O)[O-])cc2ncccc12
  86.4*	26.5	x	-26.5
COCc1cn(CC[C@@H]2CC[C@H](NC(=O)Cc3cccnc3)[C@H](CO)O2)nn1
  3.4	x	-13.1	x
CN1CCN(CCCNC(=O)c2ccc(/C=C3\Oc4ccccc4N(Cc4ccccc4F)C3=O)cc2)CC1
  92.8*	10.3	-2.7	-10.3
O=C(NCCCN1CCOCC1)c1ccc2c(c1)N(Cc1ccccc1)C(=O)c1ccccc1S2
  -2.5	21.2	-9.8	-21.2
Cc1cccc(CN2C(=O)/C(=C\c3ccc(C(=O)NCCCN4CCN(C)CC4)cc3)Oc3ccccc32)c1
  32.0	-29.2	19.1	29.2
CN1CCN(CCCNC(=O)c2ccc(/C=C3/Sc4ccccc4N(Cc4cccc(Cl)c4)C3=O)cc2)CC1
  128.5*	-1.0	-16.9	1.0
CCN1CCN(CCNC(=O)c2ccc(/C=C3\Sc4ccccc4N(Cc4ccccc4F)C3=O)cc2)CC1
  135.5	x	x	x
CN1CCN(CCCNC(=O)c2ccc(/C=C3\Sc4ccccc4N(Cc4ccc(F)cc4)C3=O)cc2)CC1
  76.1*	8.5	20.5	-8.5
COc1cccc(-c2ccc([C@@H]3[C@H](CO)N(C(=O)C4CC4)C34CN(C(C)=O)C4)cc2)c1
  -2.4	x	x	x
CC(=O)c1c(C)[nH]c(C(=O)Nc2ccc(C)c(C)c2)c1C
  x	-39.8	-16.9	39.8
COc1ccc(NC(=O)c2[nH]c(C)c(C(C)=O)c2C)cc1Cl
  x	-74.8	2.7	74.8*
CCc1c(C(=O)Nc2ccc(C)c(C)c2)[nH]c(C)c1C(C)=O
  113.7*	-48.5	-12.2	48.5
Cc1noc(C)c1NC(=O)Nc1ccc2c(c1)C(=O)N([C@@H](C)CO)C[C@@H](C)[C@@H](CN(C)S(=O)(=O)c1ccc(F)cc1)O2
  4.1	x	14.9	x
CCN(CC)c1ccc(NC(=O)CSc2nc3nc(C)cc(C)c3c(=O)[nH]2)cc1
  42.1*	3.9	-14.2	-3.9
O=C(C[C@@H]1CC[C@H](NC(=O)CC2CC2)[C@H](CO)O1)NCc1ccccc1
  16.7	x	x	x
C[C@@H]1CN([C@H](C)CO)C(=O)Cc2cc(NC(=O)Nc3ccccc3)ccc2O[C@@H]1CN(C)Cc1ccc(C(=O)O)cc1
  x	x	19.5	x
CCOc1cc(C(=O)NCc2ccccc2)ccc1OCC(=O)N1CCOCC1
  5.2	7.0	2.9	-7.0
CCOc1cc(/C=C/c2nc3ccccc3s2)ccc1OCC(=O)N1CCOCC1
  83.1	-77.6	-24.8	77.6*
COc1ccc(NC(=O)Nc2cccc3c2O[C@@H](CN(C)C)[C@H](C)CN([C@H](C)CO)C3=O)cc1
  10.9	x	-7.5	x
COc1ccc(Cc2nnc(NC(=O)Cc3cccs3)s2)cc1OC
  153.4*	15.3	5.3	-15.3
O=C(Cc1cccs1)Nc1nnc(Cc2ccccc2)s1
  -4.5	16.5	-2.4	-16.5
Cc1nc(N2CCC(C)CC2)c2nnn(Cc3ccccc3)c2n1
  x	-81.5	3.0	81.5*
CC(C)NC(=O)N(C)C[C@H]1Oc2ccc(N(C)C)cc2CC(=O)N(C)C[C@H]1C
  3.8	x	x	x
COc1ccc(CNC(=O)CCS(=O)(=O)c2ccc3c(c2)NC(=O)C(C)S3)cc1 (stereo unspecified)
  8.5	58.9	-18.7	-58.9
COc1ccc(CNC(=O)CCS(=O)(=O)c2ccc3c(c2)NC(=O)CS3)cc1
  144.6*	-2.9	-8.4	2.9
Cc1ccc(NC(=O)c2ccc([N+](=O)[O-])o2)c(C)c1
  2.3	13.5	-11.1	-13.5
Cc1ccc(S(=O)(=O)c2ccc([N+](=O)[O-])o2)cc1
  98.6*	-17.0	x	17.0
COc1ccc(-c2csc(C3=C(O)CN(C(C)C)C3=N)n2)cc1OC
  21.4	-84.2	-7.0	84.2*
COc1ccc(-c2nc(CCl)cs2)cc1
  x	8.2	x	-8.2
COc1ccc(-c2nc(-c3ccc(O)cc3O)cs2)cc1OC
  x	-91.1	-12.6	91.1*
CC(C)CCN1CC(O)=C(c2nc(-c3ccc(Cl)cc3)cs2)C1=N
  78.3*	-76.1	-7.1	76.1*
COc1ccc(N2CC(O)=C(c3nc(-c4ccccc4)cs3)C2=N)cc1
  -9.1	x	-21.6	x
COc1ccc(-c2csc(-c3ccc(O)cc3)n2)cc1
  -5.0	-47.5	x	47.5
COc1ccc(-c2nc(CCl)cs2)cc1OC
  61.8*	15.2	13.0	-15.2
CO[C@H]1CN(C)C(=O)c2ccc(NC(=O)c3cnccn3)cc2OC[C@@H](C)NC[C@@H]1C
  -11.1	x	x	x
C[C@H](CO)N1C[C@H](C)[C@H](CN(C)Cc2cccc(C(F)(F)F)c2)Oc2ncc(/C=C/c3ccccc3)cc2C1=O
  -2.3	x	2.2	x
CCOc1ccc(-c2nc(CSc3nnc(N)s3)cs2)cc1OC
  56.8*	-17.0	-19.3	17.0

Some of the entries so far, as labelled records.
COc1ccc(N2CC(O)=C(c3nc(-c4ccccc4)cs3)C2=N)cc1
  GSIS activator = -9.1
  SR-BI DiI-HDL act = x
  UUG fidelity = -21.6
  SR-BI DiI inh = x
COc1ccc(-c2csc(-c3ccc(O)cc3)n2)cc1
  GSIS activator = -5.0
  SR-BI DiI-HDL act = -47.5
  UUG fidelity = x
  SR-BI DiI inh = 47.5
COc1ccc(-c2nc(CCl)cs2)cc1OC
  GSIS activator = 61.8*
  SR-BI DiI-HDL act = 15.2
  UUG fidelity = 13.0
  SR-BI DiI inh = -15.2
CO[C@H]1CN(C)C(=O)c2ccc(NC(=O)c3cnccn3)cc2OC[C@@H](C)NC[C@@H]1C
  GSIS activator = -11.1
  SR-BI DiI-HDL act = x
  UUG fidelity = x
  SR-BI DiI inh = x

Screens deposited in PubChem BioAssay by Broad Institute.
